Assay results published in ChEMBL document CHEMBL1131654 (Bioorg Med Chem Lett, 1998).

By UniProt entry, the sequences of proteins in these tests, tags left out.
UniProt P08908, whole entry: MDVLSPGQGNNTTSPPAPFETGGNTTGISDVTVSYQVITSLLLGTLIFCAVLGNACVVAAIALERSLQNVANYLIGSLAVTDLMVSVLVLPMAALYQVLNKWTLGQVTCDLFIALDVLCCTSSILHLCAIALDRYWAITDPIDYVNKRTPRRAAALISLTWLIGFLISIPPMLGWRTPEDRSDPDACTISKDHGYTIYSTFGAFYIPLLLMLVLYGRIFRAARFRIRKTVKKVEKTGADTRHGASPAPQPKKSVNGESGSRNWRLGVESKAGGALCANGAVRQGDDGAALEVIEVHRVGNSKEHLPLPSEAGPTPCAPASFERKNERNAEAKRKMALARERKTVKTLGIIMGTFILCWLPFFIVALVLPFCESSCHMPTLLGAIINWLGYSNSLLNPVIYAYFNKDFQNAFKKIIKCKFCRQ

Molecular target: 5-hydroxytryptamine receptor 1A (Homo sapiens, UniProt P08908)
Test: In vitro binding affinity was determined towards cloned human 5-hydroxytryptamine 1A receptor using [3H]8-OH-DPAT radioligand

- Ki: 407 nM
SMILES: CNS(=O)(=O)Cc1ccc2[nH]cc(CCN(C)C)c2c1
